Amino acid sequences for entries named in this document (tags omitted). A change or cut given only in a name is not applied to a line headed by its entry.
UniProt P32245, whole entry: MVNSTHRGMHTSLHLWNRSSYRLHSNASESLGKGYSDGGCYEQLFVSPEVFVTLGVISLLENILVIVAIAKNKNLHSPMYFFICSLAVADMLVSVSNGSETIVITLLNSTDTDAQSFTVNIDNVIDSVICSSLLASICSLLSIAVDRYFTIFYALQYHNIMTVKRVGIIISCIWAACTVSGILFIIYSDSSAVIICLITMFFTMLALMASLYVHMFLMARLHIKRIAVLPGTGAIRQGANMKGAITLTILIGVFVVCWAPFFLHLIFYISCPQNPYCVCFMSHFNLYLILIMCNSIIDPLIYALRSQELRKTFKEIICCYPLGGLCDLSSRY
UniProt P41968: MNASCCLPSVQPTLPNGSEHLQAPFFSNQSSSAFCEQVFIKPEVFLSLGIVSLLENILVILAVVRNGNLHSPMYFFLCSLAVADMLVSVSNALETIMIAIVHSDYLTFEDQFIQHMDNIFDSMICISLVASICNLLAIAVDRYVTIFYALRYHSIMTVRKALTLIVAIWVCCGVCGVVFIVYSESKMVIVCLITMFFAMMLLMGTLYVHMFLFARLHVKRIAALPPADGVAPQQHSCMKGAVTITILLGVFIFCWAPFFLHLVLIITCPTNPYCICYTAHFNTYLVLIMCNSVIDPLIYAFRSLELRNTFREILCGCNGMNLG

The substances below were run against human MC4R (Homo sapiens, UniProt P32245) (assay: not given). Details: read-out: MC4 Ki, HEK 293 cells.
“Ac-Arg-cyclo[Cys-Glu-(1-Me-His)-(4-Cl-D-Phe)-Arg-Trp-Cys]-NH2 [Compound 87]” was tested, and the Ki was 1.11 nM.
Substance “Ac-nLeu-cyclo[hCys-His-D-Phe-Arg-Trp-penicillamine]-NH2 [Compound 177]” has a Ki of 0.05 nM.
“Ac-diaminobutyryl-cyclo[Cys-Glu-His-D-Phe-Arg-Trp-Cys]-NH2 [Compound 44]” was tested, and the Ki was 0.95 nM.
In the case of “4-phenylbutyryl-cyclo[hCys-His-D-Phe-Arg-Trp-penicillamine]-NH2 [Compound 174]”, the Ki is reported as 0.23 nM.
For “N-phenylsulfonyl-Gly-cyclo[hCys-His-D-Phe-Arg-Trp-penicillamine]-NH2 [Compound 178]”, the Ki was 0.38 nM.
In the case of “Ac-diaminopropionyl-cyclo[Cys-Glu-His-D-Phe-Arg-Trp-Cys]-NH2 [Compound 43]”, the Ki is reported as 1.06 nM.

These substances were tested against human MC3R (Homo sapiens, UniProt P41968) (assay: Melanocortin receptor whole cell cAMP accumulation assay, MC3 (Table 2, MC3 Potency, printed as Ki)). Details: HEK 293 cells.
Format: cell-based
Work on “Ac-Arg-cyclo[Cys-Glu-(1-Me-His)-(4-Cl-D-Phe)-Arg-Trp-Cys]-NH2 [Compound 87]” yielded a Ki of 42.4 nM.
With “Ac-nLeu-cyclo[hCys-His-D-Phe-Arg-Trp-penicillamine]-NH2 [Compound 177]” the Ki was 1.24 nM.
For “Ac-diaminobutyryl-cyclo[Cys-Glu-His-D-Phe-Arg-Trp-Cys]-NH2 [Compound 44]”, the Ki was 107 nM.
“4-phenylbutyryl-cyclo[hCys-His-D-Phe-Arg-Trp-penicillamine]-NH2 [Compound 174]” was tested, and the Ki was 4.86 nM.
Substance “Ac-Tyr-Arg-cyclo[Cys-Glu-(1-Me-His)-D-Phe-Arg-Trp-Cys]-NH2 [Compound 81]” has a Ki of 496 nM.
“Ac-D-Arg-cyclo[Cys-Glu-His-Phe-Arg-Trp-Cys]-NH2 [Compound 47]” showed a Ki greater than 500 nM.
“Ac-Val-cyclo[Cys-Glu-His-D-Phe-Arg-Trp-Cys]-NH2 [Compound 63]” gave a Ki of 266 nM.
In the case of “Ac-Tyr-Arg-cyclo[Cys-Glu-(β-((1-benzyl)-1,2,4-triazol-3-yl))-D-Ala)-D-Phe-Arg-Trp-Cys]-NH2 [Compound 108]”, the Ki is reported as 167 nM.
Work on “Tyr-Arg-cyclo[Cys-Glu-His-D-Phe-Arg-Trp-Cys]-OH [Compound 69]” yielded a Ki of 222 nM.
Work on “Ac-Cit-cyclo[Cys-Glu-(1-Me-His)-D-Phe-Arg-Trp-Cys]-NH2 [Compound 56]” yielded a Ki of no less than 500 nM.
Substance “Ac-Tyr-Arg-cyclo[Cys-Glu-His-(4-F-D-Phe)-Arg-Trp-Cys]-NH2 [Compound 83]” has a Ki of 15 nM.
With “Tyr-Arg-cyclo[hCys-His-D-Phe-Arg-Trp-Cys]-OH [Compound 163]” the Ki was 85.8 nM.
With “N-phenylsulfonyl-Gly-cyclo[hCys-His-D-Phe-Arg-Trp-penicillamine]-NH2 [Compound 178]” the Ki was 10.5 nM.
“Arg-cyclo[Cys-His-(4-Cl-D-Phe)-Arg-Trp-hCys]-NH2 [Compound 188]” was tested, and the Ki was 12.6 nM.
In the case of “Ac-Tyr-Arg-cyclo[hCys-Glu-His-D-Phe-Arg-Trp-hCys]-NH2 [Compound 197]”, the Ki is reported as 248 nM.
“Ac-Tyr-Arg-cyclo[Cys-Glu-His-D-Phe-Arg-Trp-Cys]-2-(2-aminoethoxy)ethanol [Compound 115]” showed a Ki of 39.8 nM.
“cyclo[Cys-His-(4-Cl-D-Phe)-Arg-Trp-hCys]-NH2 [Compound 182]” gave a Ki of 70.8 nM.
Substance “Ac-Arg-cyclo[Cys-His-(4-Cl-D-Phe)-Arg-Trp-hCys]-NH2 [Compound 191]” has a Ki of 4.13 nM.
“Arg-cyclo[Cys-His-(4-F-D-Phe)-Arg-Trp-hCys]-NH2 [Compound 187]” was tested, and the Ki was 22.7 nM.
Work on “Ac-Tyr-Arg-cyclo[Cys-Glu-(1-Me-His)-(4-OMe-D-Phe)-Arg-Trp-Cys]-NH2 [Compound 94]” yielded a Ki of 157 nM.
“Ac-Leu-cyclo[Cys-Glu-His-D-Phe-Arg-Trp-Cys]-NH2 [Compound 57]” was tested, and the Ki was 200 nM.
“Ac-diaminopropionyl-cyclo[Cys-Glu-His-D-Phe-Arg-Trp-Cys]-NH2 [Compound 43]” showed a Ki of 157 nM.
In the case of “Ac-Tyr-Arg-cyclo[Cys-Val-His-D-Phe-Arg-Trp-Cys]-NH2 [Compound 25]”, the Ki is reported as 37 nM.
“Ac-nLeu-cyclo[Cys-Glu-His-D-Phe-Arg-Trp-Cys]-NH2 [Compound 60]” was tested, and the Ki was 97.1 nM.
